# Measured values reported in article PMC11370232, “Repurposing of a library for high-content screening of inhibitors against Echinococcus granulosus” (Parasites & Vectors, 2024).
# System: E. granulosus PSCs
# Test: microbe, parasite or virus in culture
# Conditions: Echinococcus granulosus; for killing at 0.5 µM / killing at 2 µM / killing at 10 µM / killing at 50 µM / MIC90: 72 h; for MIC90: read-out: MIC90 (minimum inhibitory concentration causing a 90% death of PSCs)
# [1] = read-out: Anti-echinicoccus activity, Dose confirmaiton 0.5uM
# [2] = read-out: Anti-echinicoccus activity, Dose confirmaiton 2uM
# [3] = read-out: Anti-echinicoccus activity, Dose confirmaiton 10uM
# [4] = read-out: Anti-echinicoccus activity, Dose confirmaiton 50uM
# [5] = read-out: Anti-echinicoccus activity, Initiate hits 50uM
# [6] = read-out: Anti-echinicoccus activity, Dose confirmaiton 0.5uM, second-stage dose-response, 0.5 μM, PSCs
# [7] = read-out: Anti-echinicoccus activity, Dose confirmaiton 2uM, second-stage dose-response, 2 μM, PSCs
# [8] = read-out: Anti-echinicoccus activity, Dose confirmaiton 10uM, second-stage dose-response, 10 μM, PSCs
# [9] = read-out: Anti-echinicoccus activity, Dose confirmaiton 50uM, second-stage dose-response, 50 μM, PSCs
# [10] = read-out: Anti-echinicoccus activity, Initiate hits 50uM, primary screen, 50 μM, PSCs, 3-day incubation, PI staining (death rate of PSCs)
# [11] = read-out: Anti-echinococcus activity % of death, 0.5uM, E. granulosus PSCs, compound at 0.5uM
# [12] = read-out: Anti-echinococcus activity % of death, 2uM, E. granulosus PSCs, compound at 2uM
# [13] = read-out: Anti-echinococcus activity % of death, 10uM, E. granulosus PSCs, compound at 10uM
# [14] = read-out: Anti-echinococcus activity % of death, 50uM, E. granulosus PSCs, compound at 50uM
# [15] = read-out: Anti-echinococcus activity % of death, 0.5uM
# [16] = read-out: Anti-echinococcus activity % of death, 2uM
# [17] = read-out: Anti-echinococcus activity % of death, 10uM
# [18] = read-out: Anti-echinococcus activity % of death, 50uM
# [19] = read-out: Anti-echinococcus activity % of death
smiles,measurement,setting,value
"CC1=C(O)C(=O)C=C2C1=CC=C1[C@@]2(C)CC[C@@]2(C)[C@@H]3C[C@](C)(C(=O)O)CC[C@]3(C)CC[C@]12C [Celastrol, reference compound]",killing at 0.5 µM,[1],0%
same,killing at 2 µM,[2],0%
same,killing at 10 µM,[3],100%
same,killing at 50 µM,[4],100%
same,killing at 50 µM,[5],94%
"Cc1cc(Nc2ncc(Cl)c(Nc3ccccc3S(=O)(=O)C(C)C)n2)c(OC(C)C)cc1C1CCNCC1 [Ceritinib (LDK378), Ceritinib, reference compound]",killing at 0.5 µM,[6],0%
same,killing at 2 µM,[7],0%
same,killing at 10 µM,[8],0%
same,killing at 50 µM,[9],100%
same,killing at 50 µM,[10],57%
same,mortality at 0.5 µM,[11],0%
same,mortality at 2 µM,[12],0%
same,mortality at 10 µM,[13],100%
same,mortality at 50 µM,[14],100%
"COc1ccc2c(c[n+](C)c3c4cc5c(cc4ccc23)OCO5)c1OC [Chelerythrine, reference compound]",MIC90,,9.2 µM
same,mortality at 0.5 µM,[15],0%
same,mortality at 2 µM,[16],0%
same,mortality at 10 µM,[17],100%
same,mortality at 50 µM,[18],100%
O=[N+]([O-])c1ccc(Cl)c([N+](=O)[O-])c1 [DNCB],mortality at 0.5 µM,[19],0%
same,mortality at 2 µM,[19],0%
same,mortality at 10 µM,[19],0%
"CCN(CC)CCN(Cc1ccc(-c2ccc(C(F)(F)F)cc2)cc1)C(=O)Cn1c(SCc2ccc(F)cc2)nc(=O)c2c1CCC2 [Darapladib (SB-480848), Darapladib, reference compound]",killing at 0.5 µM,[6],0%
same,killing at 2 µM,[7],0%
same,killing at 10 µM,[8],0%
same,killing at 50 µM,[9],100%
same,killing at 50 µM,[10],90%
same,mortality at 0.5 µM,[11],0%
same,mortality at 2 µM,[12],0%
same,mortality at 10 µM,[13],30%
same,mortality at 50 µM,[14],100%
"COc1cccc2c1C(=O)c1c(O)c3c(c(O)c1C2=O)C[C@@](O)(C(C)=O)C[C@@H]3O[C@H]1C[C@H](N)[C@H](O)[C@H](C)O1 [Daunorubicin HCl, reference compound]",killing at 0.5 µM,[1],100%
same,killing at 2 µM,[2],100%
same,killing at 10 µM,[3],100%
same,killing at 50 µM,[4],100%
same,killing at 50 µM,[5],100%
CC1CCC(C(C)C)C(OC(=O)C[N+](C)(C)CCCCCCCCCC[N+](C)(C)CC(=O)OC2CC(C)CCC2C(C)C)C1 (centres unmarked) [Decamethoxine],mortality at 0.5 µM,[15],0%
same,mortality at 2 µM,[16],0%
same,mortality at 10 µM,[17],20%
same,mortality at 50 µM,[18],100%
O=c1c(-c2ccccc2)c1-c1ccccc1 [Diphenylcyclopropenone],mortality at 0.5 µM,[19],0%
same,mortality at 2 µM,[19],0%
same,mortality at 10 µM,[19],0%
same,mortality at 50 µM,[19],100%
"COc1cccc2c1C(=O)c1c(O)c3c(c(O)c1C2=O)C[C@@](O)(C(=O)CO)C[C@@H]3O[C@H]1C[C@H](N)[C@H](O)[C@H](C)O1 [Doxorubicin (Adriamycin), Doxorubicin, reference compound]",killing at 0.5 µM,[6],100%
same,killing at 2 µM,[7],100%
same,killing at 10 µM,[8],100%
same,killing at 50 µM,[9],100%
same,killing at 50 µM,[10],100%
"CCCCc1oc2ccc(NS(C)(=O)=O)cc2c1C(=O)c1ccc(OCCCN(CCCC)CCCC)cc1 [Dronedarone HCl, reference compound]",killing at 0.5 µM,[6],0%
same,killing at 2 µM,[7],0%
same,killing at 10 µM,[8],0%
same,killing at 50 µM,[9],100%
same,killing at 50 µM,[10],100%
same,MIC90,,18 µM
CCCCOC(=O)C[S+]([O-])c1nc2cccnc2s1 (centres unmarked) [EF-4040],mortality at 0.5 µM,[19],0%
same,mortality at 2 µM,[19],0%
same,mortality at 10 µM,[19],0%
same,mortality at 50 µM,[19],100%
CN1CCN(c2ccccc2/C=C2\SCCN(c3ccc(Cl)c(Cl)c3)C2=O)CC1 [ELZASONAN],mortality at 0.5 µM,[19],0%
same,mortality at 2 µM,[19],0%
same,mortality at 10 µM,[19],0%
same,mortality at 50 µM,[19],100%
"COc1cccc2c1C(=O)c1c(O)c3c(c(O)c1C2=O)C[C@@](O)(C(=O)CO)C[C@@H]3O[C@H]1C[C@H](N)[C@@H](O)[C@H](C)O1 [Epirubicin HCl, reference compound]",killing at 0.5 µM,[6],100%
same,killing at 2 µM,[7],100%
same,killing at 10 µM,[8],100%
same,killing at 50 µM,[9],100%
same,killing at 50 µM,[10],100%
COc1ccc(CCN(C)CCCOc2ccc(S(=O)(=O)c3c(C(C)C)cn4ccccc34)cc2)cc1OC [FANTOFARONE],mortality at 0.5 µM,[15],0%
same,mortality at 2 µM,[16],0%
same,mortality at 10 µM,[17],0%
same,mortality at 50 µM,[18],100%
O=C(C[n+]1ccn(CC(OCc2ccc(Cl)cc2Cl)c2ccc(Cl)cc2Cl)c1)c1ccc(F)cc1 (centres unmarked) [F[…]],mortality at 0.5 µM,[15],0%
same,mortality at 2 µM,[16],0%
same,mortality at 10 µM,[17],0%
same,mortality at 50 µM,[18],100%
CC(NCCC(c1ccccc1)c1ccccc1)c1ccccc1 (centres unmarked) [Fendiline (hydrochloride)],mortality at 0.5 µM,[15],0%
same,mortality at 2 µM,[16],0%
same,mortality at 10 µM,[17],0%
same,mortality at 50 µM,[18],100%
O=C1NCN(c2ccccc2)C12CCN(CCCC(c1ccc(F)cc1)c1ccc(F)cc1)CC2 [Fluspirilene],mortality at 0.5 µM,[15],0%
same,mortality at 2 µM,[16],0%
same,mortality at 10 µM,[17],0%
same,mortality at 50 µM,[18],100%
"COc1cc2c(Oc3ccc(NC(=O)C4(C(=O)Nc5ccc(F)cc5)CC4)cc3F)ccnc2cc1OCCCN1CCOCC1 [Foretinib, reference compound]",killing at 0.5 µM,[1],0%
same,killing at 2 µM,[2],0%
same,killing at 10 µM,[3],0%
same,killing at 50 µM,[4],100%
same,killing at 50 µM,[5],100%
same,mortality at 0.5 µM,[11],0%
same,mortality at 2 µM,[12],0%
same,mortality at 10 µM,[13],0%
same,mortality at 50 µM,[14],100%
CC(C)c1cc(C(C)C)c(-c2csc(N(CCN(C)C)Cc3cccnc3)n2)c(C(C)C)c1 [Foropafant],mortality at 0.5 µM,[19],0%
same,mortality at 2 µM,[19],0%
same,mortality at 10 µM,[19],0%
same,mortality at 50 µM,[19],100%
COCCN1CCC(N(Cc2ccc(-c3ccc(C(F)(F)F)cc3)cc2)C(=O)Cn2c(CCc3cccc(F)c3F)nc(=O)c3cccnc32)CC1 [GSK-568859],mortality at 0.5 µM,[19],0%
same,mortality at 2 µM,[19],0%
same,mortality at 10 µM,[19],0%
same,mortality at 50 µM,[19],100%
O=c1c2ccccc2c(Cc2ccc(Cl)cc2)nn1C[C@H]1CCCN1CCCCc1ccc(OCCCN2CCCCCC2)cc1 [GSK-1004723D],mortality at 0.5 µM,[15],0%
same,mortality at 2 µM,[16],0%
same,mortality at 10 µM,[17],0%
same,mortality at 50 µM,[18],100%
Oc1c(Cl)cc(Cl)c(Cl)c1Cc1c(O)c(Cl)cc(Cl)c1Cl [HEXACHLOROPHENE],mortality at 0.5 µM,[15],0%
same,mortality at 2 µM,[16],0%
same,mortality at 10 µM,[17],100%
same,mortality at 50 µM,[18],100%
C=CC(=O)Nc1cccc(Oc2nc(Nc3ccc(N4CCN(C)CC4)cc3)nc3ccsc23)c1 [HM-61713],mortality at 0.5 µM,[11],0%
same,mortality at 2 µM,[12],0%
same,mortality at 10 µM,[13],0%
same,mortality at 50 µM,[14],100%
"O=C(Nc1cc(C(F)(F)F)cc(C(F)(F)F)c1)c1cc(Cl)ccc1O [IMD 0354, reference compound]",killing at 0.5 µM,[1],0%
same,killing at 2 µM,[2],100%
same,killing at 10 µM,[3],100%
same,killing at 50 µM,[4],100%
same,killing at 50 µM,[5],97%
same,mortality at 0.5 µM,[15],0%
same,mortality at 2 µM,[16],100%
same,mortality at 10 µM,[17],100%
same,mortality at 50 µM,[18],100%
CNC1CC(c2ccc(Cl)c(Cl)c2)c2ccccc21 (centres unmarked) [INDATRALINE],mortality at 0.5 µM,[19],0%
same,mortality at 2 µM,[19],0%
same,mortality at 10 µM,[19],0%
same,mortality at 50 µM,[19],100%
"CN[C@@H]1C[C@@H](c2ccc(Cl)c(Cl)c2)c2ccccc21 [Indatraline hydrochloride, reference compound]",killing at 0.5 µM,[1],0%
same,killing at 2 µM,[2],0%
same,killing at 10 µM,[3],0%
same,killing at 50 µM,[4],100%
same,killing at 50 µM,[5],90%
CCOC(=O)[C@H](Cc1ccc(F)cc1)NC(=O)[C@@H](N)Cc1ccc(N(CCCl)CCCl)cc1 [J-1],mortality at 0.5 µM,[15],0%
same,mortality at 2 µM,[16],0%
same,mortality at 10 µM,[17],100%
same,mortality at 50 µM,[18],100%
"CCc1ccc(OCc2ccccc2C(=O)Nc2ccc3nc(C)cc(N)c3c2)cc1 [JTC-801, reference compound]",killing at 0.5 µM,[6],0%
same,killing at 2 µM,[7],0%
same,killing at 10 µM,[8],40%
same,killing at 50 µM,[9],100%
same,killing at 50 µM,[10],100%
same,MIC90,,16.4 µM
same,mortality at 0.5 µM,[15],0%
same,mortality at 2 µM,[16],0%
same,mortality at 10 µM,[17],100%
same,mortality at 50 µM,[18],100%
N#Cc1c(NC(=O)CCl)sc2c1CCCCC2 [KPS-0373],mortality at 0.5 µM,[15],0%
same,mortality at 2 µM,[16],0%
same,mortality at 10 µM,[17],80%
same,mortality at 50 µM,[18],100%
NC(CO)(CO)CCc1ccc(Sc2cccc(OCc3ccccc3)c2)cc1Cl [KRP-203],mortality at 0.5 µM,[19],0%
same,mortality at 2 µM,[19],0%
same,mortality at 10 µM,[19],0%
same,mortality at 50 µM,[19],100%
CC(CN1CCCCC1)C(=O)c1ccc2ccccc2c1 (centres unmarked) [KZ-111],mortality at 0.5 µM,[15],0%
same,mortality at 2 µM,[16],0%
same,mortality at 10 µM,[17],0%
same,mortality at 50 µM,[18],100%
Cc1cccc(C)c1OCCN1CCC(C(O)(c2ccc(F)cc2)c2ccc(F)cc2)CC1 [LAS 30538],mortality at 0.5 µM,[19],0%
same,mortality at 2 µM,[19],0%
same,mortality at 10 µM,[19],0%
same,mortality at 50 µM,[19],100%

# Where a name gives a salt, the structure may show the parent alone. Read-outs that look alike come from different tables or passages of the source.
